Assay results: patent US5118791A, “Biologically active polypeptides based on transforming growth factor-β” (Genentech, Inc., priority 1991, dated 1992)

Tested on: WI-38 human fibroblasts
Experiment: Stimulation of PGE2 production from IL-1 treated fibroblasts
Type: cell-based
Details: IL-1 treated WI-38 cells, overnight; conjugate and HSA diluted 1:10 and 1:20, dimer 100 and 50 μM; FIG. 2
Description: Three to four days before assay WI-38 human fibroblasts (from the American Type Culture Collection, Rockville, MD) were seeded in 96-well flat-bottom plates. On the day of the assay IL-1 was diluted to 2 u/ml in assay medium (modified Eagle's medium with 10% fetal bovine serum, L-glutamine, and penicillin/streptomycin (Gibco, Grand Island, NY)). Samples to be tested were diluted 1:1 with the IL-1. To each of duplicate wells of the WI-38 cells was added 100 μl of sample. The plates were incubated overnight at 37° C. with 5% carbon dioxide. Supernatant from each well was collected for assay of amount of PGE2 released. Thus, twenty μl of each supernatant was added to 80 μl of RIA assay buffer and the diluted supernatant was assayed for PGE2 according to the directions of the supplier (PGE2 RIA kit, DuPont NEN, cat. #NEK-020).

Substance: HSA control: human serum albumin alone processed in an identical manner, used as additional control
- stimulation of PGE2 production from fibroblasts: inactive
